Assays:
HIV-1 [1] = tested on: HIV-1
HIV-1 [2] = test: microbe, parasite or virus in culture; details: Human immunodeficiency virus 1, 72 h, read-out: EC50, µM, in HIV-1 plaque reduction assay

Structure (SMILES): CCCCCCCCCCCCCCCCOCCCOP(=O)(O)COCCn1cnc2c(N)ncnc21 [HDP-Adefovir]
- logs more active than adefovir (HIV-1 [1]): more than 5 logs
- EC50 (HIV-1 [2]): 0.0001 µM

Source: EP1914237B1 (priority 1999, dated 2001)
